Measurements: US9884844B2 (priority 2012, dated 2018)

The chains behind the UniProt entries cited, without tags or fusion partners. Where a name states a change or a piece, a line headed by the entry shows the natural chain unless it says otherwise.
UniProt P41146: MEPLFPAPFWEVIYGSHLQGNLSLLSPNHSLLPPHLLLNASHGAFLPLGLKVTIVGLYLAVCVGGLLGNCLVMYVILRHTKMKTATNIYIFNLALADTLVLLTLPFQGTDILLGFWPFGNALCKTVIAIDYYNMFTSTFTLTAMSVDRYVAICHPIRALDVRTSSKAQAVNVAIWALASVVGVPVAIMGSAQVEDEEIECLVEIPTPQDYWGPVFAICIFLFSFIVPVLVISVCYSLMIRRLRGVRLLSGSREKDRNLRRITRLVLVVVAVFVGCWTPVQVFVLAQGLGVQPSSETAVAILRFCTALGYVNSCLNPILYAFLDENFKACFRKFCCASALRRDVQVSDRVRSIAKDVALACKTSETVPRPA

Biological target: human NOP (Homo sapiens, UniProt P41146)
Experiment: cAMP assay on cells expressing human NOP (NOP assay)
Details: read-out: NOP EC50, HEK cells expressing human NOP

CNC(=O)CC1C(=O)N(C2CCN(C3Cc4cccc5ccc(OC)c3c45)CC2)c2ccccc21 (single isomer, unassigned)
EC50: < 100 nM

NC(=O)C1CC12C(=O)N(C1CCN(C3Cc4cccc5cccc3c45)CC1)c1ccccc12 (stereo not drawn)
EC50: < 100 nM

CC1(CC(O)CN)C(=O)N(C2CCN(C3Cc4cccc5cccc3c45)CC2)c2ccccc21 (stereo not drawn)
EC50: 100 to 1000 nM

CC1(Cc2ncco2)C(=O)N(C2CCN([C@@H]3Cc4cccc5cccc3c45)CC2)c2ccccc21 (stereo partly drawn)
EC50: > 5000 nM

COC(=O)NCC1(O)C(=O)N(C2CCN([C@@H]3c4cccc5cccc(c45)[C@H]3O)CC2)c2ccccc21 (stereo partly drawn)
EC50: > 5000 nM

CC1(Cc2ncn[nH]2)C(=O)N(C2CCN(C3c4cccc5cccc(c45)C3O)CC2)c2ccccc21 (stereo not drawn)
EC50: > 5000 nM

CNC(=O)C[C@]1(O)C(=O)N(C2CCN([C@H]3c4cccc5cccc(c45)[C@@H]3O)CC2)c2ccccc21
EC50: < 100 nM

CC1(CC(O)CO)C(=O)N(C2CCN([C@@H]3Cc4cccc5cccc3c45)CC2)c2ccccc21 (stereo partly drawn)
EC50: > 5000 nM

O=C1N(C2CCN(C3Cc4cccc5cccc3c45)CC2)c2ccccc2C1(F)CC(O)CO (stereo not drawn)
EC50: > 5000 nM

CNC(=O)CC1(O)C(=O)N(C2CCN(C3Cc4cccc5c4C3N(C)CC5)CC2)c2ccccc21 (stereo not drawn)
EC50: > 5000 nM

CN(C)C(=O)CC1(O)C(=O)N(C2CCN(C3Cc4cccc5cccc3c45)CC2)c2ccccc21 (stereo not drawn)
EC50: 100 to 1000 nM

CNC(=O)C[C@@]1(C)C(=O)N(C2CCN([C@H]3c4ccccc4CC[C@@H]3O)CC2)c2ccccc21
EC50: > 5000 nM

CNC(=O)CC1(O)C(=O)N(C2CCN(C3c4cccc5cccc(c45)C3C)CC2)c2ccccc21 (stereo not drawn)
EC50: < 100 nM

CNC(=O)CC1(F)C(=O)N(C2CCN(C3(C)Cc4cccc5cccc3c45)CC2)c2ccccc21 (stereo not drawn)
EC50: < 100 nM

CNC(=O)C[C@@]1(F)C(=O)N(C2CCN(C3c4cccc5cccc(c45)[C@H]3O)CC2)c2ccccc21 (single isomer, unassigned)
EC50: > 5000 nM

NC[C@H](O)CC1(O)C(=O)N(C2CCN(C3Cc4cccc5cccc3c45)CC2)c2ccccc21 (single isomer, unassigned)
EC50: < 100 nM

CNC(=O)CC1(C)C(=O)N(C2CCN(CCC(Oc3cc(OC)ccc3Cl)C(C)C)CC2)c2ccccc21 (stereo not drawn)
EC50: < 100 nM

CNC(=O)C[C@]1(C)C(=O)N(C2CCN([C@@]3(C)CCc4ccccc43)CC2)c2ccccc21
EC50: < 100 nM

CNC(=O)CC1C(=O)N(C2CCN(C3c4cccc5cccc(c45)[C@@H]3C)CC2)c2ccccc21 (stereo partly drawn)
EC50: < 100 nM

CNC(=O)CC1(O)C(=O)N(C2CCN([C@H]3c4ccccc4CC[C@@H]3O)CC2)c2ccccc21 (stereo partly drawn)
EC50: 100 to 1000 nM

CC1(Cc2ncco2)C(=O)N(C2CCN(C3c4cccc5cccc(c45)C3O)CC2)c2ccccc21 (stereo not drawn)
EC50: > 5000 nM

O=C1NCC2(O1)C(=O)N(C1CCN(C3Cc4cccc5cccc3c45)CC1)c1ccccc12 (stereo not drawn)
EC50: < 100 nM

CNC(=O)CCC1(C)C(=O)N(C2CCN(C3Cc4cccc5cccc3c45)CC2)c2ccccc21 (stereo not drawn)
EC50: < 100 nM

CNC(=O)CC1(O)C(=O)N(C2CCN(C3(C)CCc4ccccc43)CC2)c2ccccc21 (stereo not drawn)
EC50: < 100 nM

C[C@]1(C[C@H](O)CN)C(=O)N(C2CCN([C@@H]3Cc4cccc5cccc3c45)CC2)c2ccccc21
EC50: > 5000 nM

CNC(=O)C[C@]1(C)C(=O)N(C2CCN([C@@H]3c4ccccc4CC[C@H]3O)CC2)c2ccccc21
EC50: > 5000 nM

NC(=O)CC1C(=O)N(C2CCN(C3Cc4cccc5cccc3c45)CC2)c2ccccc21 (stereo not drawn)
EC50: < 100 nM

O=C1N(C2CCN(C3Cc4cccc5cccc3c45)CC2)c2ccccc2C1(O)Cc1ncco1 (stereo not drawn)
EC50: > 5000 nM

CNC(=O)CC1C(=O)N(C2CCN(C3c4cccc5cccc(c45)C3O)CC2)c2ccccc21 (stereo not drawn)
EC50: < 100 nM

CNC(=O)C[C@@]1(O)C(=O)N(C2CCN([C@@H]3Cc4cccc5cccc3c45)CC2)c2ccccc21
EC50: 100 to 1000 nM

C[C@H](O)CC1(O)C(=O)N(C2CCN(C3Cc4cccc5cccc3c45)CC2)c2ccccc21 (stereo partly drawn)
EC50: > 5000 nM

CNC(=O)CC1C(=O)N(C2CCN(C3c4cccc5cccc(c45)C3C)CC2)c2ccccc21 (stereo not drawn)
EC50: < 100 nM

CN1CC2(CC1=O)C(=O)N(C1CCN(C3Cc4cccc5cccc3c45)CC1)c1ccccc12 (stereo not drawn)
EC50: < 100 nM

CNC(=O)CC1(C)C(=O)N(C2CCN(CCC(Oc3cccc(OC)c3)C(C)C)CC2)c2ccccc21 (stereo not drawn)
EC50: 100 to 1000 nM

CNCC(O)CC1(C)C(=O)N(C2CCN(C3Cc4cccc5cccc3c45)CC2)c2ccccc21 (stereo not drawn)
EC50: > 5000 nM

NCC1(O)C(=O)N(C2CCN(C3Cc4cccc5cccc3c45)CC2)c2ccccc21 (stereo not drawn)
EC50: > 5000 nM

CNC(=O)CC1(C)C(=O)N(C2CCN([C@H]3c4cccc5cccc(c45)[C@@H]3O)CC2)c2ccccc21 (stereo partly drawn)
EC50: < 100 nM

COC(=O)CC1C(=O)N(C2CCN(C3(C)CCCc4ccccc43)CC2)c2ccccc21 (stereo not drawn)
EC50: < 100 nM

CNC(=O)CC1(O)C(=O)N(C2CCN(C3(C)Cc4cccc5cccc3c45)CC2)c2ccccc21 (stereo not drawn)
EC50: < 100 nM

CNC(=O)C[C@]1(O)C(=O)N(C2CCN([C@@H]3Cc4cccc5cccc3c45)CC2)c2ccccc21
EC50: < 100 nM

CNC(=O)CC1C(=O)N(C2CCN(C3Cc4cccc5cccc3c45)CC2)c2ccccc21 (stereo not drawn)
EC50: < 100 nM

CNC(=O)C[C@@]1(C)C(=O)N(C2CCN([C@H]3c4cccc5cccc(c45)C3(F)F)CC2)c2ccccc21
EC50: 100 to 1000 nM

CNC(=O)CC1(O)C(=O)N(C2CCN(C3c4cccc5cccc(c45)C3(C)C)CC2)c2ccccc21 (stereo not drawn)
EC50: 100 to 1000 nM

CNC(=O)CC1(C)C(=O)N(C2CCN(C3(C)Cc4cccc5cccc(c45)C3)CC2)c2ccccc21 (stereo not drawn)
EC50: > 5000 nM

CN(C)C(=O)CC1(O)C(=O)N(C2CCN([C@H]3c4cccc5cccc(c45)[C@@H]3O)CC2)c2ccccc21 (stereo partly drawn)
EC50: < 100 nM

C[C@@H](O)CC1(O)C(=O)N(C2CCN(C3Cc4cccc5cccc3c45)CC2)c2ccccc21 (stereo partly drawn)
EC50: > 5000 nM

CCOC(=O)CC1C(=O)N(C2CCN([C@@H]3c4cccc5cccc(c45)[C@H]3C)CC2)c2ccccc21 (stereo partly drawn)
EC50: 100 to 1000 nM

Cc1cccc2cccc(CN3CCC(N4C(=O)C(CC5CNC(=O)O5)c5ccccc54)CC3)c12 (stereo not drawn)
EC50: 1000 to 5000 nM

CNC(=O)CC1C(=O)N(C2CCN(CCC(Oc3cc(C)ccc3Cl)C(C)C)CC2)c2ccccc21 (stereo not drawn)
EC50: < 100 nM

Cc1cccc2cccc(CN3CCC(N4C(=O)C(C)(CC5CNC(=O)O5)c5ccccc54)CC3)c12 (stereo not drawn)
EC50: > 5000 nM

CN1CC2(OC1=O)C(=O)N(C1CCN(C3Cc4cccc5cccc3c45)CC1)c1ccccc12 (stereo not drawn)
EC50: < 100 nM

CNC(=O)C[C@@]1(C)C(=O)N(C2CCN([C@@]3(C)Cc4cccc5cccc3c45)CC2)c2ccccc21 (single isomer, unassigned)
EC50: < 100 nM

Cn1cnc(CC2(C)C(=O)N(C3CCN(C4c5cccc6cccc(c56)C4O)CC3)c3ccccc32)n1 (stereo not drawn)
EC50: > 5000 nM

O=C1N(C2CCN(C3Cc4cccc5cccc3c45)CC2)c2ccccc2C1(O)CCO (stereo not drawn)
EC50: > 5000 nM
